# In US20060233709A1, “Method for identifying novel treatments of inflammatory disease in the gut” (priority 2003, published 2006):
# How the values were obtained:
# [1] = tested on: zebrafish larvae gut epithelium; assay: Transmission electron microscopy of gut epithelium; conditions: PSA-exposed samples compared to controls, 8 d.p.f.
# [2] = tested on: zebrafish larvae with PSA-induced IBD; assay: Histology (haematoxylin and eosin sections) of gut in PSA-induced IBD; type: in vivo; conditions: versus control
# mast cells = assay: Mast cell staining and quantification in PSA-induced IBD; conditions: fish exposed to PSA, versus control
# TNFα = TNFα wholemount antibody labelling / immunofluorescence in PSA-induced IBD; conditions: PSA-exposed samples; staining absent in controls
# [3] = tested on: zebrafish larvae with PSA-induced IBD; assay: In vivo examination of gut architecture and motility (quercetin labelling) in PSA-induced IBD; conditions: PSA in embryo medium from 3 to 8 d.p.f., versus control
substance,measurement,setting,value
trinitrobenzene sulfonic acid,Gap and tight junctions between cells (TEM),[1],loss of gap and tight junctions between cells
same,Goblet cells in mid-intestine and posterior intestine,[2]; PSA-exposed samples,high numbers of goblet cells were observed
same,"Gut histology (lumen, villi, clefts)",[2]; fish exposed to PSA,"the lumen of the gut was expanded and the lining of the gut was smooth, devoid of villi and clefts"
same,Mast cell infiltration throughout the gut,mast cells,markedly increased
same,TNFα wholemount antibody staining,TNFα,strong staining on the luminal epithelium
same,Gut architecture in vivo,[3],the gut was dilated and there was reduction in villus length and expansion of crypts
same,Peristalsis in vivo,[3],peristalsis was lost
